Source: US11834432B2, “Substituted amino six-membered nitric heterocyclic ring compound and preparation and use thereof” (SHANGHAI INSTITUTE OF MATERIA MEDICA, CHINESE ACADEMY OF …, priority 2016, dated 2023)
“And” between values parts separate entries of the source, which are not always exact repeats. Equal values may be shown once.

By UniProt entry, the sequences of proteins in these tests, tags left out. Residues count along the entry.
UniProt P11362, 478-767 limits assumed: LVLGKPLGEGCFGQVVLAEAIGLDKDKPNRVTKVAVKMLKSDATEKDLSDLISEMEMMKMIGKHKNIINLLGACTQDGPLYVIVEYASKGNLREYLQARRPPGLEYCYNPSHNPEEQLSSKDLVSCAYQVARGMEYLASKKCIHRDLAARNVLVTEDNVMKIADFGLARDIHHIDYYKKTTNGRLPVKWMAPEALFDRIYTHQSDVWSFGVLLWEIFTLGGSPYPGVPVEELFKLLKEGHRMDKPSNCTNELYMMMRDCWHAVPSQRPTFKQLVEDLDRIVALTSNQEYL

Legend:
[1] = tested on: SNU16 cells; assay: Inhibition of proliferation of SNU16 cells (CCK-8); conditions: 72 h
[2] = biological target: FGFR1 kinase domain recombinant protein (Homo sapiens (Human), UniProt P11362); assay: Inhibition of receptor tyrosine kinase FGFR1 activity (ELISA); assay type: biochemical

| SMILES | Inhibition ratio (%) ([1]; 10 nM) | Inhibition ratio (%) ([1]; 100 nM) | Inhibition ratio (%) ([1]; 1000 nM) | IC50 [2] [nM] | Inhibition ratio (%) @ 0.1 μM [2] [%] |
| --- | --- | --- | --- | --- | --- |
| C=CC(=O)Nc1ccc(C(=O)Nc2cc(Oc3ccc4c(C(=O)NC)cccc4c3)ccn2)cc1 | 27.8% and 24.6% | 28.5% and 25.9% | 43.5% and 38.9% | < 100 | 78 |
| C=CC(=O)Nc1cccc(C(=O)Nc2cc(Oc3ccc4c(C(=O)NC)cccc4c3)ccn2)c1 |  |  |  | < 100 | 84 |
